{
  "sequences": {"note": "Chains of the proteins cited; added tags and fusions are not shown.", "UniProt Q16654, whole entry, species assumed": "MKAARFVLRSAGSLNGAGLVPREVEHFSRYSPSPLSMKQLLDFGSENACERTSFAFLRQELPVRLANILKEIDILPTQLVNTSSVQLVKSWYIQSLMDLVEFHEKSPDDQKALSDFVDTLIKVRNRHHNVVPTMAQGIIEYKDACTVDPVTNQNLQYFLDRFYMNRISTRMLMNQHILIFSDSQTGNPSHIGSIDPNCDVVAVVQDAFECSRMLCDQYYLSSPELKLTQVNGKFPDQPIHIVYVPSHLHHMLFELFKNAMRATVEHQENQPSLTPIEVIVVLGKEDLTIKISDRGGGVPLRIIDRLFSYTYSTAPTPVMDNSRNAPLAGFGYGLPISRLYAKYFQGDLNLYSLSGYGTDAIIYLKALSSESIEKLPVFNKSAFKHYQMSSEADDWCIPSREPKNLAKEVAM"},
  "source": "patent US20150344404A1",
  "about": "“PDK4 INHIBITOR AND USE THEREOF” (THE KITASATO INSTITUE, priority 2012, published 2015)",
  "origin": "cited, not measured here",
  "target": "PDK4 (Homo sapiens, UniProt Q16654)",
  "conditions": "background art; cited from earlier work",
  "data": [
    {"smiles": "O=C(O)C(Cl)Cl", "note": "[Dichloro acetic acid]", "values": [
      {"measurement": "effect on PDK4 activity", "result": "weak inhibitory activity"}
    ]}
  ]
}
